Consider four compounds from ChEMBL document CHEMBL4477204, “Tetrahydroisoquinoline-Derived Urea and 2,5-Diketopiperazine Derivatives as Selective Antagonists of the Transient Receptor Potential Melastatin 8 (TRPM8) Channel Receptor and Antiprostate Cancer Agents” (J Med Chem, 2016).

Common to all, as to assay type: cell-based
The species entered for assay [1] is Rattus norvegicus. The assay can be described thus: Selectivity ratio of IC50 for recombinant rat TRPA1 expressed in HEK293 cells to IC50 for recombinant rat TRPM8 expressed in HEK293 cells.
Assay [2] in a line: Selectivity ratio of IC50 for recombinant human TRPV1 expressed in HEK293 cells to IC50 for recombinant rat TRPM8 expressed in HEK293 cells.
The species named for assay [3] is Rattus norvegicus. The assay can be described thus: Selectivity ratio of IC50 for recombinant rat TRPV2 expressed in HEK293 cells to IC50 for recombinant rat TRPM8 expressed in HEK293 cells.
The species entered for assay [4] is Rattus norvegicus. Put plainly: Selectivity ratio of IC50 for recombinant rat TRPV3 expressed in HEK293 cells to IC50 for recombinant rat TRPM8 expressed in HEK293 cells.
The species entered for assay [5] is Rattus norvegicus. The assay can be described thus: Selectivity ratio of IC50 for recombinant rat TRPV4 expressed in HEK293 cells to IC50 for recombinant rat TRPM8 expressed in HEK293 cells.

Bounds are passed on as bounds.

On to `COc1cc(/C=C2\NC(=O)[C@@H]3Cc4c(OC)c(C)c(OC)c(OC)c4[C@@H](c4ccccc4)N3C2=O)c(OC)c(C)c1OC`, for which the Ratio IC50 in the assay listed under Rattus norvegicus [1] is 23; in assay [2] it was 111; in the assay filed under Rattus norvegicus [3], 20; in the assay listed under Rattus norvegicus [4], 55; in the assay listed under Rattus norvegicus [5], > 161.

As for `COc1cc2c(cc1OC)[C@H](c1ccccc1)N(C(=O)N1CCc3cc(OC)c(OC)cc3[C@@H]1c1ccccc1)CC2` (racemic), the Ratio IC50 in the assay listed under Rattus norvegicus [1] is 20; in assay [2], 106; in the assay listed under Rattus norvegicus [3], 104; in the assay listed under Rattus norvegicus [4] it was > 200; in the assay listed under Rattus norvegicus [5], 165.

On to `COc1cc2c(cc1OC)[C@H](c1ccc(F)cc1)N(C(=O)N1CCc3cc(OC)c(OC)cc3[C@@H]1c1ccc(F)cc1)CC2` (racemic), for which the Ratio IC50 in the assay filed under Rattus norvegicus [1] was determined as 228; in assay [2], 951; in the assay filed under Rattus norvegicus [3], 1310; in the assay listed under Rattus norvegicus [4], 1010; in the assay filed under Rattus norvegicus [5] it was 1340.

For `COc1cc2c(cc1OC)[C@H](c1ccc(Cl)cc1)N(C(=O)N1CCc3cc(OC)c(OC)cc3[C@@H]1c1ccc(Cl)cc1)CC2` (racemic), the Ratio IC50 in the assay listed under Rattus norvegicus [1] was 56; in assay [2], 116; in the assay filed under Rattus norvegicus [3] it was 128; in the assay filed under Rattus norvegicus [4], > 233; in the assay filed under Rattus norvegicus [5], 189.
